Test results from US3962243A (Laboratories Made, S.A., priority 1974, dated 1976).

Sequences of proteins named here, by UniProt entry; tags and fusion partners are left off. Residues count along the entry.
UniProt H0W1Z3, 1-590: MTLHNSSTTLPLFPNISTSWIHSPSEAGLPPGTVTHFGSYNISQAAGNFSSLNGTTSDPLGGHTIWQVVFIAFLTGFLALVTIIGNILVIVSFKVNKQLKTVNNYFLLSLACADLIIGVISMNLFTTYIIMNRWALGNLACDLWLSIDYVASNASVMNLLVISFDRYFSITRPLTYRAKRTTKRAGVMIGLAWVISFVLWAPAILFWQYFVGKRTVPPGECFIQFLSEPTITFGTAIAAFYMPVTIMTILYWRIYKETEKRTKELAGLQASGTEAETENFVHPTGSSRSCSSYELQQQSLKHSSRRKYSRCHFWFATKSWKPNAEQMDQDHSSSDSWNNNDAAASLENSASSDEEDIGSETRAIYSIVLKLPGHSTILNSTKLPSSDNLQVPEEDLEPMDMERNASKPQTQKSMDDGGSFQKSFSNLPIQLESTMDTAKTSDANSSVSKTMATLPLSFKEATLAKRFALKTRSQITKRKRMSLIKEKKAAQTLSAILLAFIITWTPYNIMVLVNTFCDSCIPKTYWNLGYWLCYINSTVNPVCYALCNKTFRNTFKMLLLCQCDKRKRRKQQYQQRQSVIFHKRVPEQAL
UniProt P31389, whole entry: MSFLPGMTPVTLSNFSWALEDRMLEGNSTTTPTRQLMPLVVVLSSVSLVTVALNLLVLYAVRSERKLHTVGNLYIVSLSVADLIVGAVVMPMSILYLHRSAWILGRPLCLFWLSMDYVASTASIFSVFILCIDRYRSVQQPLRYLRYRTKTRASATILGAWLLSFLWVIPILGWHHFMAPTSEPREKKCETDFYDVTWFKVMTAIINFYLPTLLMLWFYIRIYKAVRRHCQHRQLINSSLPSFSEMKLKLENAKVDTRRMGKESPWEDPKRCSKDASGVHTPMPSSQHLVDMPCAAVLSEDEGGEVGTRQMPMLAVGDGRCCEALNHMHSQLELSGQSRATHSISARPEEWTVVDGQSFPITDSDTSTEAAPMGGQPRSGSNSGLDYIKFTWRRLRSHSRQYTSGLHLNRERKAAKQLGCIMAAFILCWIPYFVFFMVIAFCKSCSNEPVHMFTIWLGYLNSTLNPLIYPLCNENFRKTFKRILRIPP

What was measured:
[1] = target: T1, isolated guinea pig ileum (Cavia porcellus, UniProt H0W1Z3); assay type: cell-based
T1 construct: isolated guinea pig ileum; from tissue; host or cells: isolated guinea pig ileum

[2] = target: T2, isolated guinea pig ileum (Cavia porcellus, UniProt P31389); assay type: cell-based
T2 construct: isolated guinea pig ileum; from tissue; host or cells: isolated guinea pig ileum

2-[(2-dimethylaminoethyl) (p-methoxybenzyl)amino]-pyridine 1,2,3,6-tetrahydro-1,3-dimethyl-2,6-dioxopurin-7-acetate
dose at which the action of acetylcholine is found to be inhibited [1]: 2.5 µg/mL
pA2 [2]: 10.05
